Data reported in paper PMC5643385, “Probing ligand recognition of the opioid pan antagonist AT-076 at nociceptin, kappa, mu, and delta opioid receptors through structure-activity relationships” (Scientific Reports, 2017).

Protein sequences, listed by entry. Tags and fused reporters are not part of them. Lines headed by an entry give the natural chain unless they say otherwise; changes in a name come on top.
UniProt P41146: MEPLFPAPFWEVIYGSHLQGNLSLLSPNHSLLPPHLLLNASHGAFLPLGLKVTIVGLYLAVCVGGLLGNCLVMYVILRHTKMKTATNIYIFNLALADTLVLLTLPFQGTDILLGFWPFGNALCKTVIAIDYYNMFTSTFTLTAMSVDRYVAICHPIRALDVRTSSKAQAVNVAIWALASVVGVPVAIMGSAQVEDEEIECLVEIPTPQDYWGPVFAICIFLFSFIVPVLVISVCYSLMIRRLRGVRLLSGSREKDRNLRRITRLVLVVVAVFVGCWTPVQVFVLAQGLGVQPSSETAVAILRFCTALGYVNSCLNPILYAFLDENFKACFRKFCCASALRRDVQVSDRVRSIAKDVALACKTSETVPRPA
UniProt P41143, whole entry: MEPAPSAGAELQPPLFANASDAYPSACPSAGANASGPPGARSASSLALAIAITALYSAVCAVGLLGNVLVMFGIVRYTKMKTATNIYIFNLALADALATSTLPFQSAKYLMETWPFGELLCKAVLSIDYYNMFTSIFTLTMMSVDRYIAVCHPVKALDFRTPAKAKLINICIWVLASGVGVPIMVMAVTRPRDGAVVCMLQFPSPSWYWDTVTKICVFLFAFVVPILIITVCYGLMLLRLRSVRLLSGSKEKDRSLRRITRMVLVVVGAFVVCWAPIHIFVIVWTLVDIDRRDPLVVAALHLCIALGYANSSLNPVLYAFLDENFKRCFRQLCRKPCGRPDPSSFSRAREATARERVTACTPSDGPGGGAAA
UniProt P35372, whole entry: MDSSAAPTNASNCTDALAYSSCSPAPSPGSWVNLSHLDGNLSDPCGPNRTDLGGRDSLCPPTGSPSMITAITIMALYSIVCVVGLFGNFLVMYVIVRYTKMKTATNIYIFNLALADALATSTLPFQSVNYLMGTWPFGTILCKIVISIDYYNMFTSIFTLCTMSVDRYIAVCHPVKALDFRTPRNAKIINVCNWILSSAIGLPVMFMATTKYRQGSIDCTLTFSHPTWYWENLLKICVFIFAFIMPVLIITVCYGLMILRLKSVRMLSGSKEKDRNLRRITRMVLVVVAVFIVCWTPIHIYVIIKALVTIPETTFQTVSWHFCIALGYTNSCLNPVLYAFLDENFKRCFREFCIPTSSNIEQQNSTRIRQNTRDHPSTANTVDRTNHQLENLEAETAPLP

Tests used:
human NOP receptor [1] = molecular target: T1, human NOP receptor (Homo sapiens, UniProt P41146); set-up: method as in PMID 25635572; conditions: Figure 1; cited from earlier work
human NOP receptor [2] = molecular target: T1, human NOP receptor; test: Radioligand competition binding, [3H]N/OFQ, membranes of transfected CHO cells
human NOP receptor [3] = molecular target: T1, human NOP receptor; test: [35S]GTPγS functional assay (intrinsic activity; Schild analysis vs N/OFQ); assay type: biochemical; conditions: inhibition of agonist-induced [35S]GTPγS binding
human DOP receptor [4] = molecular target: T2, human DOP receptor (Homo sapiens, UniProt P41143); test: Radioligand competition binding, [3H]DPDPE, membranes of transfected CHO cells
human MOP receptor [5] = molecular target: T3, human MOP receptor (Homo sapiens, UniProt P35372); conditions: read-out: MOP Ki; Figure 1; cited from earlier work
human DOP receptor [6] = molecular target: T2, human DOP receptor; conditions: read-out: DOP Ki; Figure 1; cited from earlier work
human MOP receptor [7] = molecular target: T3, human MOP receptor; test: Radioligand competition binding, [3H]DAMGO, membranes of transfected CHO cells

Compound: CC(C)[C@@H](CN1CCC(c2cccc(O)c2)CC1)NC(=O)[C@H]1Cc2ccc(O)cc2CN1 [1 (AT-076), (R)-7-hydroxy-N-((S)-1-(4-(3-hydroxyphenyl)piperidin-1-yl)-3-methylbutan-2-yl)-1,2,3,4-tetrahydroisoquinoline-3-carboxamide]
- Ki (human NOP receptor [1]): 1.75 ± 0.74 nM
- Ki (human NOP receptor [2]): 1.75 ± 0.74 nM
- Antagonist Potency (pA2 ± SEM) NOP (human NOP receptor [3]): 7.52

Compound: CC(C)[C@@H](CN1CC[C@@](C)(c2cccc(O)c2)[C@@H](C)C1)NC(=O)[C@H]1Cc2ccc(O)cc2CN1 [JDTic, reference compound]
- Ki (human DOP receptor [4]): 10.6 ± 0.17 nM
- Ki (human MOP receptor [5]): 1.53 ± 0.19 nM
- Ki (human DOP receptor [6]): 10.6 ± 0.17 nM
- Ki (human MOP receptor [7]): 1.53 ± 0.19 nM

Like-named read-outs stand apart in the source and are kept apart here.
